Protein sequences, listed by entry. Tags and fused reporters are not part of them.
UniProt P41594, whole entry: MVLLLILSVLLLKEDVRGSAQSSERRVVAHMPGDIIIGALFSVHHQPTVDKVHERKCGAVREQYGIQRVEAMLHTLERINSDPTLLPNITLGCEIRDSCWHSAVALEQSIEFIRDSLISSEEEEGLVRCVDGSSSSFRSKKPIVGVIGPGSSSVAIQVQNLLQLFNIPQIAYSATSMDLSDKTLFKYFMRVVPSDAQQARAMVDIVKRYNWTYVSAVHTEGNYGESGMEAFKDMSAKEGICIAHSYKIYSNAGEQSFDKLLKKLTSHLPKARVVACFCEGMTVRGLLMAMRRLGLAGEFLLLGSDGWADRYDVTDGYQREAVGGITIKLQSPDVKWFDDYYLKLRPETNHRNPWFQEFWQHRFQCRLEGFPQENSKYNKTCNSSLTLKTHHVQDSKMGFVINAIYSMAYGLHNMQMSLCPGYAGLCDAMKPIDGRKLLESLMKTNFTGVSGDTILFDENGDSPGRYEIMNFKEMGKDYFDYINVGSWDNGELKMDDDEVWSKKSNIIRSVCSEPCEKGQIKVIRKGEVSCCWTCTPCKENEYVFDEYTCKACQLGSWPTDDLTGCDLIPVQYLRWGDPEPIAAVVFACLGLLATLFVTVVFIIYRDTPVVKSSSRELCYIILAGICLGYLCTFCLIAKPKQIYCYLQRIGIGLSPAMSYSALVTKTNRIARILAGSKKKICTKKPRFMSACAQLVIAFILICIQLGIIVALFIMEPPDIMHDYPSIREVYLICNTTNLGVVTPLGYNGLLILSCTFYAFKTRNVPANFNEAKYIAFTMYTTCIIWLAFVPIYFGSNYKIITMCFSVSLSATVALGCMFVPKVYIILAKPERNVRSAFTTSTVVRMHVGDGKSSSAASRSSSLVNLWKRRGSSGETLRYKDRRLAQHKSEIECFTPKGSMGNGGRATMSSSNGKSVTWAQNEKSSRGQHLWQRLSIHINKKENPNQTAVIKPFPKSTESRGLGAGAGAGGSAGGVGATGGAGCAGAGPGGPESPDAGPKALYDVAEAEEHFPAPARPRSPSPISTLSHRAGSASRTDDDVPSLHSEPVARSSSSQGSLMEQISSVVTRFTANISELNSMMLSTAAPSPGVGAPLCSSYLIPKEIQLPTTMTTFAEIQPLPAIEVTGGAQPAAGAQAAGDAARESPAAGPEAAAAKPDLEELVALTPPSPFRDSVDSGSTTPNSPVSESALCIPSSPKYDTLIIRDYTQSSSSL
UniProt P31424, whole entry: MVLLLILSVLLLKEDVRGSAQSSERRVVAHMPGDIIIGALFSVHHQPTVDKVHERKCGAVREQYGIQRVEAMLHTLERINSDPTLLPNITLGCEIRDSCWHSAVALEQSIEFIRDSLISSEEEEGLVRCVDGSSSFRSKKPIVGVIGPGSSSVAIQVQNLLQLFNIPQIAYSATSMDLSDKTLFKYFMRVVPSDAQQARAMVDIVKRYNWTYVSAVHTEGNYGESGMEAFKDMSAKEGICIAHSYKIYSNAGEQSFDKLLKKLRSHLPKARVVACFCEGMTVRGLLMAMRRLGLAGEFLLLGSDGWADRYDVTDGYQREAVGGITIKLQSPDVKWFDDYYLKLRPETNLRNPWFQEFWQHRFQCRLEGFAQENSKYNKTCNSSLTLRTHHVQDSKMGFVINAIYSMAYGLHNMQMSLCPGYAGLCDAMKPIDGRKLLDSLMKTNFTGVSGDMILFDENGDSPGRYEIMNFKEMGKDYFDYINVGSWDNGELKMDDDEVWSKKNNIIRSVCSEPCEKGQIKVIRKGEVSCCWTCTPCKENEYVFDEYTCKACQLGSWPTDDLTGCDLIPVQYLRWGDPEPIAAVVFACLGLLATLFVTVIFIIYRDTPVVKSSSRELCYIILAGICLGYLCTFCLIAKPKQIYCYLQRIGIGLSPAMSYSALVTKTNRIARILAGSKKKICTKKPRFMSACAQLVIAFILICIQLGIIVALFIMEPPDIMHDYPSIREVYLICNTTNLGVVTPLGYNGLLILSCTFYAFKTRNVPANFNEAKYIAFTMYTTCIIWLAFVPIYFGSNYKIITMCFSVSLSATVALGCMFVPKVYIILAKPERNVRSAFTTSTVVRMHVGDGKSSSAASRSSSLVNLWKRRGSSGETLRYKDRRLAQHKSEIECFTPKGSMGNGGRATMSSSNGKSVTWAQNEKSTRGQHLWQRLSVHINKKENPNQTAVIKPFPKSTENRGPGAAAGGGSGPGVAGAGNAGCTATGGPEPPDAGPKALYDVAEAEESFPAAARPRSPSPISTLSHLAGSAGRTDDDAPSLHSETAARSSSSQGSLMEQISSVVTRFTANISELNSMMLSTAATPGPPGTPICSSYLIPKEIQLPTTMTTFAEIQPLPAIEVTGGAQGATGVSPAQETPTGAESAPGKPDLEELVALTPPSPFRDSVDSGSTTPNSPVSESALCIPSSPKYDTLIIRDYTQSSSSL

In ChEMBL document CHEMBL1137127 (Bioorg Med Chem Lett, 2004):

Assays:
[1] = biological target: Metabotropic glutamate receptor 5 (Homo sapiens, UniProt P41594); assay: In vitro potency against human recombinant mGlu5 receptor was determined by [Ca2+] flux assay using glutamate as agonist; assay type: functional
Procedure, shortened: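 Ltk cells stably expressing human recombinant mGlu5; automated assay of cytosolic Ca²⁺ changes by fura-2 fluorescence; IC50 from antagonist response. Mean with a spread value and n in parentheses.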

[2] = biological target: Metabotropic glutamate receptor 5 (Rattus norvegicus, UniProt P31424); assay: Displacement by compound of [3H]3-methoxy-5-(pyridin-2-ylethynyl)pyridine from rat cortical membranes; assay type: cell membranes, Membrane
Procedure, shortened: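 Native rat mGlu5 binding: rat cortical membranes, displacement of [³H]-3-methoxy-5-(pyridin-2-ylethynyl)pyridine by test compound; Ki derived.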

Structure (SMILES): Cc1nc(C#Cc2ccc(-c3ccccc3)nc2)cs1
- IC50 [1]: 0.5 nM
- Ki [2]: 2 nM

Structure (SMILES): Cc1nc(C#Cc2cccnc2)cs1
- Ki [2]: 12 nM

Structure (SMILES): Cc1nc(C#Cc2cccc(-c3ccccc3)c2)cs1
- IC50 [1]: 41 nM
- Ki [2]: 16 nM

Structure (SMILES): Cc1nc(C#Cc2ccc(-c3cccnc3)nc2)cs1
- IC50 [1]: 2 nM
- Ki [2]: 2 nM
